# Membrane permeability of cyclic peptides

Values of Kelly et al. 2021, doi:10.1021/jacs.0c06115, as listed in CycPeptMPDB.

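Conditions beyond the assay type are not listed; see the original paper. The list need not hold all peptides of the study. Peptides that the database sets to -10, its floor, are left out.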

PAMPA measures passive passage through an artificial lipid membrane.
MDCK values are permeabilities across Madin-Darby canine kidney cell monolayers.
P is given in units of 10^-6 cm/s (from log10 values with two decimals); larger means faster passage.
Cells with "–" have no entry in this list.

| structure (SMILES) | PAMPA (10^-6 cm/s) | MDCK (10^-6 cm/s) |
|---|---|---|
| CC(=O)N1CCC[C@@H]1C(=O)N(C)[C@@H](CC(C)C)C(=O)N[C@@H]1C(=O)N(C)[C@@H](CC(C)C)C(=O)N(C)[C@@H](CC(C)C)C(=O)N(C)[C@H](CC(C)C)C(=O)N(C)[C@H](C)C(=O)N[C@H](CC(C)C)C(=O)N2CCC[C@H]2C(=O)O[C@@H]1C | 1.4 | – |
| CC(=O)N1CCC[C@H]1C(=O)N(C)[C@H](CC(C)C)C(=O)N[C@@H]1C(=O)N[C@@H](CC(C)C)C(=O)N(C)[C@H](CC(C)C)C(=O)N(C)[C@@H](CC(C)C)C(=O)N(C)[C@@H](C)C(=O)N[C@H](CC(C)C)C(=O)N2CCC[C@H]2C(=O)O[C@@H]1C | 2.2 | – |
| CC(=O)N1CCC[C@H]1C(=O)N(C)[C@@H](CC(C)C)C(=O)N[C@@H]1C(=O)N[C@H](CC(C)C)C(=O)N(C)[C@H](CC(C)C)C(=O)N(C)[C@@H](CC(C)C)C(=O)N(C)[C@H](C)C(=O)N[C@@H](CC(C)C)C(=O)N2CCC[C@H]2C(=O)O[C@@H]1C | 3.5 | – |
| CC(=O)N1CCC[C@H]1C(=O)N(C)[C@@H](CC(C)C)C(=O)N[C@@H]1C(=O)N[C@H](CC(C)C)C(=O)N[C@@H](CC(C)C)C(=O)N(C)[C@H](CC(C)C)C(=O)N(C)[C@H](C)C(=O)N[C@@H](CC(C)C)C(=O)N2CCC[C@@H]2C(=O)O[C@@H]1C | 4.1 | – |
| CC(=O)N1CCC[C@@H]1C(=O)N(C)[C@H](CC(C)C)C(=O)N[C@@H]1C(=O)N[C@@H](CC(C)C)C(=O)N(C)[C@H](CC(C)C)C(=O)N(C)[C@@H](CC(C)C)C(=O)N[C@@H](C)C(=O)N[C@@H](CC(C)C)C(=O)N2CCC[C@H]2C(=O)O[C@@H]1C | 0.46 | – |
| CC(=O)N1CCC[C@@H]1C(=O)N(C)[C@@H](CC(C)C)C(=O)N[C@@H]1C(=O)N[C@@H](CC(C)C)C(=O)N[C@@H](CC(C)C)C(=O)N[C@H](CC(C)C)C(=O)N[C@@H](C)C(=O)N[C@@H](CC(C)C)C(=O)N2CCC[C@H]2C(=O)O[C@@H]1C | 0.14 | – |
| CC(=O)N1CCC[C@@H]1C(=O)N(C)[C@@H](CC(C)C)C(=O)N[C@@H]1C(=O)N(C)[C@H](CC(C)C)C(=O)N(C)[C@H](CC(C)C)C(=O)N[C@H](CC(C)C)C(=O)N(C)[C@@H](C)C(=O)N[C@H](CC(C)C)C(=O)N2CCC[C@@H]2C(=O)O[C@@H]1C | 2.2 | – |
| CC(=O)N1CCC[C@@H]1C(=O)N(C)[C@H](CC(C)C)C(=O)N[C@@H]1C(=O)N[C@@H](CC(C)C)C(=O)N[C@H](CC(C)C)C(=O)N(C)[C@@H](CC(C)C)C(=O)N(C)[C@@H](C)C(=O)N[C@@H](CC(C)C)C(=O)N2CCC[C@@H]2C(=O)O[C@@H]1C | 6 | – |
| CC(=O)N1CCC[C@@H]1C(=O)N(C)[C@H](CC(C)C)C(=O)N[C@@H]1C(=O)N[C@H](CC(C)C)C(=O)N[C@H](CC(C)C)C(=O)N[C@H](CC(C)C)C(=O)N[C@H](C)C(=O)N[C@H](CC(C)C)C(=O)N2CCC[C@@H]2C(=O)O[C@@H]1C | 0.003 | – |
| CC(=O)N1CCC[C@H]1C(=O)N(C)[C@H](CC(C)C)C(=O)N[C@@H]1C(=O)N[C@@H](CC(C)C)C(=O)N[C@@H](CC(C)C)C(=O)N[C@@H](CC(C)C)C(=O)N(C)[C@@H](C)C(=O)N[C@H](CC(C)C)C(=O)N2CCC[C@@H]2C(=O)O[C@@H]1C | 0.51 | – |
| CC(=O)N[C@@H]1C(=O)N2CCC[C@H]2C(=O)N(C)[C@H](CC(C)C)C(=O)N(C)[C@H](CC(C)C)C(=O)N[C@@H](CC(C)C)C(=O)N(C)[C@@H](CC(C)C)C(=O)N[C@H](C)C(=O)N[C@@H](CC(C)C)C(=O)N2CCC[C@@H]2C(=O)O[C@@H]1C | 4.8 | – |
| CC(=O)N1CCC[C@@H]1C(=O)N(C)[C@H](CC(C)C)C(=O)N[C@@H]1C(=O)N[C@H](CC(C)C)C(=O)N[C@H](CC(C)C)C(=O)N[C@H](CC(C)C)C(=O)N(C)[C@H](C)C(=O)N[C@H](CC(C)C)C(=O)N2CCC[C@H]2C(=O)O[C@@H]1C | 0.41 | – |
| CC(=O)N1CCC[C@@H]1C(=O)N(C)[C@@H](CC(C)C)C(=O)N[C@@H]1C(=O)N[C@H](CC(C)C)C(=O)N[C@@H](CC(C)C)C(=O)N(C)[C@@H](CC(C)C)C(=O)N[C@@H](C)C(=O)N[C@@H](CC(C)C)C(=O)N2CCC[C@@H]2C(=O)O[C@@H]1C | 4.1 | – |
| CC(=O)N1CCC[C@H]1C(=O)N(C)[C@H](CC(C)C)C(=O)N[C@@H]1C(=O)N(C)[C@@H](CC(C)C)C(=O)N[C@@H](CC(C)C)C(=O)N(C)[C@H](CC(C)C)C(=O)N(C)[C@H](C)C(=O)N[C@@H](CC(C)C)C(=O)N2CCC[C@@H]2C(=O)O[C@@H]1C | 4.7 | 4.8 |
| CC(=O)N1CCC[C@@H]1C(=O)N(C)[C@@H](CC(C)C)C(=O)N[C@@H]1C(=O)N(C)[C@H](CC(C)C)C(=O)N[C@H](CC(C)C)C(=O)N[C@@H](CC(C)C)C(=O)N(C)[C@H](C)C(=O)N[C@@H](CC(C)C)C(=O)N2CCC[C@H]2C(=O)O[C@@H]1C | 1.7 | – |

The first 2 entries again:

| structure (SMILES) | PAMPA (10^-6 cm/s) | MDCK (10^-6 cm/s) |
|---|---|---|
| CC(=O)N1CCC[C@@H]1C(=O)N(C)[C@@H](CC(C)C)C(=O)N[C@@H]1C(=O)N(C)[C@@H](CC(C)C)C(=O)N(C)[C@@H](CC(C)C)C(=O)N(C)[C@H](CC(C)C)C(=O)N(C)[C@H](C)C(=O)N[C@H](CC(C)C)C(=O)N2CCC[C@H]2C(=O)O[C@@H]1C | 1.4 | – |
| CC(=O)N1CCC[C@H]1C(=O)N(C)[C@H](CC(C)C)C(=O)N[C@@H]1C(=O)N[C@@H](CC(C)C)C(=O)N(C)[C@H](CC(C)C)C(=O)N(C)[C@@H](CC(C)C)C(=O)N(C)[C@@H](C)C(=O)N[C@H](CC(C)C)C(=O)N2CCC[C@H]2C(=O)O[C@@H]1C | 2.2 | – |